Consider one compound from ChEMBL document CHEMBL1146689, “The design and synthesis of a novel quinolizidine template for potent opioid and opioid receptor-like (ORL1, NOP) receptor ligands” (2004).

Amino acid sequences for entries named in this document (tags omitted). A change or cut given only in a name is not applied to a line headed by its entry.
UniProt P41146: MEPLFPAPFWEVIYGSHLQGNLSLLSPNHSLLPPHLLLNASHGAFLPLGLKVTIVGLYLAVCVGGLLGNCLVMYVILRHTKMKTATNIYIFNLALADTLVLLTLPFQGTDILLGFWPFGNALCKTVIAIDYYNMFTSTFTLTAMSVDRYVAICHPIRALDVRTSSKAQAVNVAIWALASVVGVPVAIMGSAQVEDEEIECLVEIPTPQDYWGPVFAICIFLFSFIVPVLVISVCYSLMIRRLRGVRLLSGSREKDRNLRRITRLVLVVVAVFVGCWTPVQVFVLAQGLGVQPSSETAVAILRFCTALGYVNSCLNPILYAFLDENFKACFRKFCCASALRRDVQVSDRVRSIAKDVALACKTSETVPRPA

The target in this assay is Nociceptin receptor (Homo sapiens, UniProt P41146). Briefly: Binding affinity for human nociceptin (NOP) receptor using [3H]N/OFQ as radioligand transfected into CHO cells.

pKi: −log10 of the molar value.

The pKi is −log10 of the Ki, conventionally taken in molar units. Lower therefore signals a large Ki. For `CC(C)C1CCC(N2CCC3(CC2)C(c2ccccc2)C[C@H]2CN(C)C[C@H]23)CC1` (stereo partly specified), the pKi is 9.31.
